What was measured:
[1] = tested on: human triple-negative breast cancer MDA-MB-231 cells; experiment: Cytotoxicity assay (CellTiter-Glo 2.0), MDA-MB-231; format: cell-based; conditions: trastuzumab conjugates; up to 133.3 nM for 6 days; FIG. 12; listed as Trastuzumab AD2C
Description: (§1) Each condition was performed in triplicate.

[2] = tested on: human HER2-positive breast cancer cell line SK-BR-3; experiment: Cytotoxicity assay (CellTiter-Glo 2.0), SK-BR-3; format: cell-based; conditions: up to 133.3 nM for 6 days, FIG. 11A, 11B
Description: as §1

Which “cytotoxicity against MDA-MB-231 (HER2-negative)” value [1] does the source give for “Trastuzumab-exatecan-vcMMAE (DAR10): Trastuzumab with 8 exatecan on cysteines and 2 MMAE on light-chain lysines (DAR10)” here?
The value was “exhibits cytotoxicity”.

And the “cytotoxicity against SK-BR-3 cells” value [2]?
The value was “better cytotoxicity”.

And the “cytotoxicity against SK-BR-3 cells” value ([2]; listed as Trastuzumab AD2C)?
The value was “exhibits cytotoxicity”.
